From US5646128A, “Methods for treating adenosine kinase related conditions” (priority 1994, dated 1997)

Chains of the proteins cited; added tags and fusions are not shown. Residues count along the entry.
UniProt A0A5G2R0F5, 1-362: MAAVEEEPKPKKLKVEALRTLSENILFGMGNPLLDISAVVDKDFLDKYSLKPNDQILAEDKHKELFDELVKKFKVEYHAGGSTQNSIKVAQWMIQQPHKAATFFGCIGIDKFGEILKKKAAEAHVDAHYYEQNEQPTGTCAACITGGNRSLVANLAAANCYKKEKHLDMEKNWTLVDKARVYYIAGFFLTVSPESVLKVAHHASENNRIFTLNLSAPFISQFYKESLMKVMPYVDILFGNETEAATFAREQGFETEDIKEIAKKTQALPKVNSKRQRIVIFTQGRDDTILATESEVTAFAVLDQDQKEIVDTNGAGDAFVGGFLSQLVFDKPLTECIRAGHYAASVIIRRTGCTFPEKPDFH
UniProt A0AAA9RZ79, 1-362: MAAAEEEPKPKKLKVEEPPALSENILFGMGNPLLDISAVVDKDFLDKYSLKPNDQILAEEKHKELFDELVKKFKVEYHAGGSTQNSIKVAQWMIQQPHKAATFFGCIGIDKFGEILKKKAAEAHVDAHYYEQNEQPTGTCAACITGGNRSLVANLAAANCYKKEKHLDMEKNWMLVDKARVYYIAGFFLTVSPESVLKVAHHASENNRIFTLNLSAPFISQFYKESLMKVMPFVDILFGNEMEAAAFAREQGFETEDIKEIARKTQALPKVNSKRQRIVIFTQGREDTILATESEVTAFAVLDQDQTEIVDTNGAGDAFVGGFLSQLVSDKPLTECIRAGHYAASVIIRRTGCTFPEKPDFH

Tests used:
[1] = target: T1, purified pig heart adenosine kinase (Sus scrofa, UniProt A0A5G2R0F5); experiment: Inhibition of adenosine kinase activity (purified pig heart enzyme); assay type: biochemical
T1 construct: purified pig heart adenosine kinase; from tissue; host or cells: pig heart
Experimental: Inhibition of enzyme activity was determined using a 0.1 mL assay mixture containing 50 mM Tris-maleate, pH 7.0, 0.1% (w/v) BSA, 1 mM ATP, 1 mM MgCl2, 0.5 μM [U-^14 C]adenosine (500 mCi/mmol) and 0.1 μg of purified pig heart adenosine kinase. Different concentrations of the test compounds were incubated in the assay mixture for 20 min. at 37° C. From each reaction mixture, 20 μl portions were removed and spotted on 2 cm^2 pieces of Whatman DE81 filter paper. […] The papers were dried, and [^14 C]AMP measured by scintillation counting.

adenosine kinase = target: T2, adenosine kinase (Bos taurus, UniProt A0AAA9RZ79); experiment: Adenosine kinase inhibition in intact cells (capillary endothelial cells from bovine heart); assay type: cell-based; conditions: 20 μM 2'-deoxycoformycin, 5 μM [3H]adenosine
T2 construct: endogenous in cells; host or cells: capillary endothelial cells from bovine heart
Experimental: Inhibition of adenosine kinase in intact cells was determined from the amount of incorporation of radioisotope from adenosine into the adenylates (AMP, ADP and ATP) in the presence of adenosine deaminase inhibition. […] The media was then discarded and the cells were treated with 50 μl 0.4M perchloric acid, centrifuged and the supernalants neutralized with 100 μl alanine: freon (1:4).

IC50 [1]: < 10 nM | IC50 (adenosine kinase): 73 nM
Structure (SMILES): C[C@H]1O[C@@H](n2cc(-c3ccccc3)c3c(Nc4ccccc4)ncnc32)[C@H](O)[C@@H]1O [GP-1-683, 7-(5-Deoxy-1-β-D-ribofuranosyl)-5-phenyl-4-phenylaminopyrrolo[2,3-d]pyrimidine]
